Data as given in US20120225065A1.

Target: Human IL-21 receptor on Baf3/KZ134/huIL-21R cells (human) (UniProt Q9HBE5)
Assay: cell-based or functional assay

With “Recombinant murine IL-21 (from UniProt Q9ES17 18-146) (ligand)” the EC90 in STAT-Luciferase assay was 6.41 nM.
